The numbers were not newly measured in patent US20090124672A1 (priority 2007, published 2009), which cites them from elsewhere.

In the series the target is T1, human mitochondrial aldehyde dehydrogenase (ALDH-2) (Homo sapiens, UniProt P05091).
T1 sequence (P05091 18-517): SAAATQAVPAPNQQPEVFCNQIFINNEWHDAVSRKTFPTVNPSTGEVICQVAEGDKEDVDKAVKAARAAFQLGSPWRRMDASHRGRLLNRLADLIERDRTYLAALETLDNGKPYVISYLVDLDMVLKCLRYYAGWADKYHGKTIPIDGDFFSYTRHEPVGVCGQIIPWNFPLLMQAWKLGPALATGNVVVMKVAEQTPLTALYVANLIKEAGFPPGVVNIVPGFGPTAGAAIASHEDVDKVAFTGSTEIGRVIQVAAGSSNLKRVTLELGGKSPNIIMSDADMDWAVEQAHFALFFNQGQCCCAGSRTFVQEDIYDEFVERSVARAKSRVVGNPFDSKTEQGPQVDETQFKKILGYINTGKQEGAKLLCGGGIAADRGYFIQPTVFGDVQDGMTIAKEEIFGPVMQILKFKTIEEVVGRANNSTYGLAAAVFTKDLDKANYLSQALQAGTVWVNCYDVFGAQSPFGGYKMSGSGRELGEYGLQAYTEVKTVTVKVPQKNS
The following applies: cited from earlier work.

On to daidzin, for which the “inhibition of ALDH-2” value is “potent and selective inhibitors”.
